Only a part is listed here, and it is no random draw. Some salts or complexes appear as unconnected parts, following the source record. The source made the active and inactive calls. No stated cut-off is given here; in the data, active means inhibition above about 60%; inactive means the rest.
molecular target: Phosphoethanolamine/phosphocholine phosphatase (Homo sapiens) (UniProt Q8TCT1); test: PubChem AID 1565; conditions: recombinant PHOSPHO1, absorbance phosphatase assay; at 13.3 µM; hits give high values

Protein sequences, listed by entry. Tags and fused reporters are not part of them.
UniProt Q8TCT1, whole entry: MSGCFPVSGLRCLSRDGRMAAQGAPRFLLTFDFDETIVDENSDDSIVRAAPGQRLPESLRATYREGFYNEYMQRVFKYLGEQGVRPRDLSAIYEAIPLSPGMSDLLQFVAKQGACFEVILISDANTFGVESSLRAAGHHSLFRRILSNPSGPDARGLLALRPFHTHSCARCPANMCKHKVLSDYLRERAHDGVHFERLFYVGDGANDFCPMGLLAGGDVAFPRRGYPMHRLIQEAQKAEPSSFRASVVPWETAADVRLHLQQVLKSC

Question: Which inhibition does the source give for `COc1ccccc1OP(C)(=O)Nc1c(C)cccc1C` (stereo not drawn) here?
Answer: The inhibition was inactive: 37.9%.

Question: For `CCCOc1ccc(NP(C)(=O)Oc2ccc(Cl)cc2)cc1` (stereo not drawn), which inhibition is on record?
Answer: Its inhibition is inactive: 16.8%.

Question: Which inhibition does the source give for `CP(=O)(Nc1ccc(SC(F)(F)F)cc1)Oc1ccccc1` (stereo not drawn) here?
Answer: Its inhibition is inactive: 7.2%.

Question: `O=C(O)c1cccc(Nc2c([N+](=O)[O-])cc([N+](=O)[O-])cc2[N+](=O)[O-])c1` was tested. Which inhibition did it give?
Answer: The inhibition was inactive: 29.8%.

Question: How did the inhibition turn out when `CC1=NCCc2c1[nH]c1ccccc21.O=[N+]([O-])c1cc([N+](=O)[O-])c(O)c([N+](=O)[O-])c1` was run?
Answer: The inhibition was inactive: -30.7%.

Question: Which inhibition does the source give for `COc1ccccc1OP(C)(=O)Nc1cccc(Br)c1` (stereo not drawn) here?
Answer: Its inhibition is inactive: 11.1%.

Question: Which inhibition does the source give for `Cc1cc(C)cc(OP(C)(=O)Nc2ccc(C)cc2C)c1` (stereo not drawn) here?
Answer: Its inhibition is inactive: 11.6%.

Question: Which inhibition does the source give for `CCOC(=O)c1ccc(NP(C)(=O)Oc2cc(C)cc(C)c2)cc1` (stereo not drawn) here?
Answer: The inhibition was inactive: -4%.

Question: With `Cc1cc(C)cc(OP(C)(=O)Nc2ccccn2)c1` (stereo not drawn) as the compound, how does the inhibition read?
Answer: The inhibition was inactive: -1.2%.

Question: With `CP(=O)(Nc1cccc(Br)c1)Oc1ccccc1` (stereo not drawn) as the compound, how does the inhibition read?
Answer: The inhibition was inactive: 3.2%.

Question: `Cc1ccc(C)c(NP(C)(=O)Oc2ccccc2)c1` (stereo not drawn) was tested. Which inhibition did it give?
Answer: The inhibition was inactive: -1.4%.

Question: `CC(C)c1ccc(OP(C)(=O)Nc2ccc(SC(F)(F)F)cc2)cc1` (stereo not drawn) was tested. Which inhibition did it give?
Answer: The inhibition was inactive: -7.8%.

Question: With `CP(=O)(Nc1ccccc1F)Oc1ccccc1` (stereo not drawn) as the compound, how does the inhibition read?
Answer: The inhibition was inactive: 8.6%.

Question: Which inhibition does the source give for `O=C(OCCN1CCN(CCOCc2ccccc2)CC1)C(O)(c1ccccc1)c1ccccc1` here?
Answer: Its inhibition is inactive: -22.6%.

Question: How did the inhibition turn out when `O=C(OC1CN2CCC1CC2)c1ccc([N+](=O)[O-])cc1` (stereo not drawn) was run?
Answer: Its inhibition is inactive: 28.5%.

Question: How did the inhibition turn out when `COc1ccc2c(c1O)-c1c(O)c(OC)cc3c1[C@H](C2)[N+](C)(C)CC3.O=[N+]([O-])c1cc([N+](=O)[O-])c([O-])c([N+](=O)[O-])c1[O-]` was run?
Answer: The inhibition was inactive: 26.5%.

Question: Which inhibition does the source give for `COc1ccc(OP(C)(=O)Nc2ccc(SC(F)(F)F)cc2)cc1` (stereo not drawn) here?
Answer: The inhibition was inactive: 0.3%.

Question: How did the inhibition turn out when `CCOC(=O)c1ccc(NP(C)(=O)Oc2ccc(F)cc2)cc1` (stereo not drawn) was run?
Answer: Its inhibition is inactive: 13.4%.

Question: Which inhibition does the source give for `CCN(CC)CCCOC(=O)C(O)(c1ccccc1)C1CCCCC1` (stereo not drawn) here?
Answer: The inhibition was inactive: 0.5%.

Question: Which inhibition does the source give for `O=[N+]([O-])c1cc([N+](=O)[O-])c(OC2CCCCC2O)c([N+](=O)[O-])c1` (stereo not drawn) here?
Answer: The inhibition was inactive: 34%.

Question: How did the inhibition turn out when `CCCCCOc1ccc(NP(C)(=O)Oc2ccc(Cl)cc2Cl)cc1` (stereo not drawn) was run?
Answer: Its inhibition is inactive: 23.9%.

Question: How did the inhibition turn out when `CP(=O)(Nc1ccccc1)Oc1ccc(F)cc1` (stereo not drawn) was run?
Answer: Its inhibition is inactive: 36.9%.

Question: Which inhibition does the source give for `COc1ccc(OP(C)(=O)Nc2cccc(Br)c2)cc1` (stereo not drawn) here?
Answer: Its inhibition is inactive: 11.1%.

Question: How did the inhibition turn out when `COc1ccc(NP(C)(=O)Oc2ccccc2OC)cc1` (stereo not drawn) was run?
Answer: Its inhibition is inactive: -12.7%.

Question: How did the inhibition turn out when `CN(C)CCOC(=O)C(O)(c1ccccc1)C1CCCCC1` (stereo not drawn) was run?
Answer: The inhibition was inactive: 21.5%.

Question: Which inhibition does the source give for `Cc1cc(-c2cccc3ccccc23)c(C)cn1.O=[N+]([O-])c1cc([N+](=O)[O-])c(O)c([N+](=O)[O-])c1` here?
Answer: The inhibition was inactive: 1.5%.

Question: For `O=[N+]([O-])c1cc([N+](=O)[O-])c(NCC2CCS(=O)(=O)C2)c([N+](=O)[O-])c1` (stereo not drawn), which inhibition is on record?
Answer: Its inhibition is inactive: 4.2%.

Question: `O=[N+]([O-])c1ccc(OP2(=O)COCCO2)cc1` (stereo not drawn) was tested. Which inhibition did it give?
Answer: The inhibition was inactive: 37.4%.

Question: Which inhibition does the source give for `CP(=O)(Nc1ccc(SC(F)(F)F)cc1)Oc1ccc(F)cc1` (stereo not drawn) here?
Answer: The inhibition was inactive: 23.9%.

Question: With `CCOP(C)(=S)SCC(=O)NC(C)(CC)C(=O)O` (stereo not drawn) as the compound, how does the inhibition read?
Answer: Its inhibition is inactive: 25.5%.

Question: For `CP(=O)(Nc1ccc2c(c1)OCCO2)Oc1ccccc1` (stereo not drawn), which inhibition is on record?
Answer: The inhibition was inactive: 1.5%.

Question: Which inhibition does the source give for `Cc1ccccc1NP(C)(=O)Nc1ccccc1C` here?
Answer: The inhibition was inactive: 41.6%.

Question: `COc1ccc(OP(C)(=O)Nc2ccc(Br)cc2)cc1` (stereo not drawn) was tested. Which inhibition did it give?
Answer: The inhibition was inactive: 5.6%.

Question: Which inhibition does the source give for `CCN(CC)CC(O)COC(=O)C(O)(c1ccccc1)C1CCCCC1` (stereo not drawn) here?
Answer: Its inhibition is inactive: 4.9%.

Question: With `CCc1ccc(OP(C)(=O)Nc2cccnc2)cc1` (stereo not drawn) as the compound, how does the inhibition read?
Answer: The inhibition was inactive: 47.7%.

Question: With `CP(=O)(Oc1ccccc1)N1CCOC1=O` (stereo not drawn) as the compound, how does the inhibition read?
Answer: The inhibition was inactive: 2.8%.

Question: Which inhibition does the source give for `O=C(OCCCN1CCCC1)C(O)(c1ccccc1)C1CCCCC1` (stereo not drawn) here?
Answer: Its inhibition is inactive: -12.5%.

Question: For `COc1ccccc1OP(C)(=O)Nc1c(C)n(C)n(-c2ccccc2)c1=O` (stereo not drawn), which inhibition is on record?
Answer: Its inhibition is inactive: -6.5%.

Question: How did the inhibition turn out when `CP(=O)(Nc1ccc(Cl)cc1)Oc1ccc(F)cc1` (stereo not drawn) was run?
Answer: The inhibition was inactive: 24.4%.

Question: Which inhibition does the source give for `COc1ccccc1OP(C)(=O)Nc1ccccc1Br` (stereo not drawn) here?
Answer: The inhibition was inactive: -6.8%.

Question: With `CC(C)(C)c1ccc(OP(C)(=O)O)cc1` as the compound, how does the inhibition read?
Answer: The inhibition was inactive: 15%.

Question: How did the inhibition turn out when `CN(C)C(=O)c1c([N+](=O)[O-])cc([N+](=O)[O-])cc1[N+](=O)[O-]` was run?
Answer: The inhibition was inactive: 4.4%.

Question: With `CP(=O)(OC12CC3CC(CC(C3)C1)C2)OC12CC3CC(CC(C3)C1)C2` as the compound, how does the inhibition read?
Answer: Its inhibition is inactive: -11.1%.

Question: How did the inhibition turn out when `CCOC(=O)c1ccc(NP(C)(=O)Oc2ccc(Cl)cc2)cc1` (stereo not drawn) was run?
Answer: The inhibition was inactive: 3.1%.

Question: `Cc1cc(C)cc(OP(C)(=O)Nc2cccc(C(F)(F)F)c2)c1` (stereo not drawn) was tested. Which inhibition did it give?
Answer: Its inhibition is inactive: 44.9%.

Question: Which inhibition does the source give for `COc1ccc(OP(C)(=O)Nc2ccccc2Br)cc1` (stereo not drawn) here?
Answer: Its inhibition is inactive: 3.5%.

Question: `COc1ccccc1OP(C)(=O)Nc1ccc(C)c(C)c1` (stereo not drawn) was tested. Which inhibition did it give?
Answer: Its inhibition is inactive: -2.2%.

Question: For `Cc1nc2ccc3ccccc3c2o1.O=[N+]([O-])c1cc([N+](=O)[O-])c(O)c([N+](=O)[O-])c1`, which inhibition is on record?
Answer: Its inhibition is inactive: 33.6%.

Question: How did the inhibition turn out when `CP(=O)(Nc1ccc(Cl)cc1Cl)Oc1ccccc1` (stereo not drawn) was run?
Answer: Its inhibition is inactive: -106%.

Question: For `CP(=O)(OCCOc1ccccc1)OCCOc1ccccc1`, which inhibition is on record?
Answer: Its inhibition is inactive: 16.6%.

Question: Which inhibition does the source give for `COc1ccccc1OP(C)(=O)Nc1ccc(Br)cc1` (stereo not drawn) here?
Answer: The inhibition was inactive: -1.4%.

Question: `CN(C)CCOC(=O)C(O)(c1ccccc1)C1CCCC1` (stereo not drawn) was tested. Which inhibition did it give?
Answer: The inhibition was inactive: 12.4%.

Question: Which inhibition does the source give for `COc1ccc(OP(C)(=O)Nc2ccccn2)cc1` (stereo not drawn) here?
Answer: Its inhibition is inactive: -8.6%.

Question: Which inhibition does the source give for `Cc1c(NP(C)(=O)Oc2ccc(C(C)C)cc2)c(=O)n(-c2ccccc2)n1C` (stereo not drawn) here?
Answer: Its inhibition is inactive: 50.1%.

Question: `O=[N+]([O-])c1cc([N+](=O)[O-])c(Nc2ccccn2)c([N+](=O)[O-])c1` was tested. Which inhibition did it give?
Answer: The inhibition was inactive: 32.8%.

Question: Which inhibition does the source give for `CCc1ccc(OP(C)(=O)O)cc1` here?
Answer: The inhibition was inactive: 48.5%.

Question: How did the inhibition turn out when `COc1ccccc1OP(C)(=O)Nc1ccc(C)cc1C` (stereo not drawn) was run?
Answer: The inhibition was inactive: 26.7%.

Question: Which inhibition does the source give for `CP(=O)(Nc1ccccn1)Oc1ccccc1` (stereo not drawn) here?
Answer: Its inhibition is inactive: -17.8%.
